From PubChem BioAssay AID493008 (The Scripps Research Institute Molecular Screening Center, 2010)
This is a selection; strong and weak results do not stand in their true shares. Active and inactive are the calls of the source.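 How the source made its calls: active means activation above the mean over all tested compounds plus 3 SD (cut at about 30% in these data); inactive means the rest.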

molecular target: Troponin I, cardiac muscle (Homo sapiens) + Troponin T, cardiac muscle (Homo sapiens) + Troponin C, slow skeletal and cardiac muscles (Homo sapiens) (UniProt P19429+P45379+P63316); assay: cardiac RTF calcium sensitivity activators, primary screen, biochemical, IANBD-TnC fluorescence, EC20 calcium (AID 493008); conditions: IANBD-labeled TnC RTF fluorescence at EC20 calcium; at 7.2 µM; stronger effect = higher value; 0% EC20 calcium, 100% full calcium;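 further: rise in fluorescence read as greater calcium sensitivity of cardiac thin filaments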

Row | SMILES | activation
1 | CS(=O)(=O)c1ccc(Cl)c(NC(=O)COC(=O)C(O)(c2ccccc2)c2ccccc2)c1 | inactive: -3.48%
2 | O=[As](O)(O)c1cccnc1 | inactive: -2.42%
3 | COc1cc(C(=O)NCC2(N3CCOCC3)CCCCC2)cc(Cl)c1OC(C)C | inactive: -3.63%
4 | O=C(OC1CN2CCC1CC2)c1ccc(Cl)cc1 (stereo unspecified) | inactive: -0.88%
5 | Cc1cccc(OCC(=O)OC2CN3CCC2CC3)c1 (stereo unspecified) | inactive: -0.89%
6 | O=[As](O)(c1cccc(O)c1)c1cccc(O)c1 | inactive: 2.77%
7 | CCCOP(=S)(Nc1nc(N)cc(=O)[nH]1)OCCC | inactive: 7.33%
8 | Nc1cccc2c([As](=O)(O)O)cccc12 | inactive: 8.07%
9 | Cc1ccc(NCCc2c([N+](=O)[O-])cc([N+](=O)[O-])cc2[N+](=O)[O-])cc1 | inactive: 9.49%
10 | CCOP(=O)(Nc1cccc2ccccc12)OCC | inactive: 4.32%
11 | COc1cc(C2NCCC3(OCCO3)C2(C)C)cc(OC)c1OC (stereo unspecified) | inactive: 6.24%
12 | CS(=O)(=O)c1cc([N+](=O)[O-])c2no[n+]([O-])c2c1 | inactive: 2.52%
13 | O=P(Nc1nccs1)(Oc1ccccc1)Oc1ccccc1 | inactive: -6.77%
14 | O=P(Nc1nccs1)(c1ccccc1)c1nc2ccccc2s1 (stereo unspecified) | inactive: 0.73%
15 | CCOP1(=S)c2c(C)nn(CCC#N)c2N=C(c2ccccc2F)N1C (stereo unspecified) | inactive: -5.99%
16 | Nc1ccccc1[As](=O)(O)c1ccccc1 | inactive: 1.27%
17 | O=C(O)COc1ccc([As](=O)(O)O)cc1[N+](=O)[O-] | inactive: -7.49%
18 | NC(=O)Nc1ccc([As](=O)(O)O)cc1 | inactive: 2.73%
19 | CN(C(=O)Cc1ccc(Cl)c(Cl)c1)[C@H]1CC[C@@]2(CCCO2)C[C@@H]1N1CCCC1 | inactive: 0.88%
20 | O=[N+]([O-])c1ccc2c(c1)nnn2O | inactive: -4.82%
21 | CN(C)C(=O)c1cc([N+](=O)[O-])cc2c1-c1c(cc([N+](=O)[O-])cc1[N+](=O)[O-])C2=O | inactive: -1.43%
22 | CCOP1(=S)c2c(C)nn(CCC#N)c2N=C(c2ccc(F)cc2)N1C (stereo unspecified) | inactive: 9.14%
23 | CN(C(=O)Cc1ccccc1)[C@@H]1CC[C@]2(CCCO2)C[C@H]1N1CCCC1 | inactive: 4.05%
24 | N#CCCN(C(=O)COC(=O)C(O)(c1ccccc1)c1ccccc1)c1ccc(F)cc1 | inactive: -7.58%
25 | CC1CCC(C(C)C)C(OP(=O)(Nc2ccccn2)c2ccccc2)C1 (stereo unspecified) | inactive: 0.47%
26 | Cc1ccc(C(=O)OC2CN3CCC2CC3)cc1 (stereo unspecified) | inactive: -2.28%

Row | SMILES | activation
27 | Cc1nn(-c2ccccc2)c2c1P(=O)(N1CCOCC1)N(C)C(c1ccccc1)=N2 (stereo unspecified) | inactive: -3.93%
28 | CCCC1OP(=O)(Nc2ccccc2)OCC1CC (stereo unspecified) | inactive: -2.07%
29 | O=C(/C=C/c1ccccc1)OC1CN2CCC1CC2 (stereo unspecified) | inactive: -3.64%
30 | CN(C)C1(CNC(=O)c2ccc(S(C)(=O)=O)cc2)CCCCC1 | inactive: -1.1%
31 | O=P1(Nc2ncccn2)COc2ccccc2OC1 | inactive: 6.33%
32 | O=[As](O)(c1cccs1)c1cccs1 | inactive: -2.89%
33 | Cc1ccc(OCC(=O)OC2CN3CCC2CC3)cc1 (stereo unspecified) | inactive: -0.66%
34 | O=P1(Nc2ccc(Br)cn2)COc2ccccc2OC1 | inactive: 3.71%
35 | NS(=O)(=O)c1cccc(NC(=O)COC(=O)C(O)(c2ccccc2)c2ccccc2)c1 | inactive: 4.49%
36 | Nc1cccc([As](=O)(O)c2ccccc2)c1 | inactive: -5.93%
37 | CCOP(=O)(Nc1ccc(C)cn1)OCC | inactive: 3.61%
38 | CCOP(=O)(NC(=NC(C)c1ccccc1)NC(C)c1ccccc1)OCC (stereo unspecified) | inactive: -3.18%
39 | O=P1(Nc2ccccn2)COc2ccccc2OC1 | inactive: 4.57%
40 | CCC1=CC2Cc3nc4ccc(Cl)cc4c(N)c3C(C1)C2 (stereo unspecified) | inactive: 3.11%
41 | CC(C)(C)C(=O)NC(Sc1ncccn1)C(Cl)(Cl)Cl (stereo unspecified) | inactive: -2.3%
42 | Clc1n[nH]nc1-c1nn[nH][15n]1 | inactive: 0.17%
43 | COc1ccccc1CNC(=O)COC(=O)C(O)(c1ccccc1)c1ccccc1 | inactive: 1.32%
44 | CC1(CBr)Cn2c(nc3ccccc3c2=O)S1 (stereo unspecified) | inactive: 6.92%
45 | CC(C)/C=N\N=C(\N)N[N+](=O)[O-] | inactive: 3.67%
46 | CN(C(=O)Cc1ccc(Cl)c(Cl)c1)[C@@H]1CCCC[C@H]1N1CCCC1 | inactive: -1.99%
47 | COP1(=S)c2c(C)nn(CCC#N)c2N=C(c2ccc(F)cc2)N1C (stereo unspecified) | inactive: 3.73%
48 | O=C(Nc1ccncc1[N+](=O)[O-])c1ccc([N+](=O)[O-])cc1[N+](=O)[O-] | inactive: -2.44%
49 | O=C(COc1ccccc1)OC1CN2CCC1CC2 (stereo unspecified) | inactive: 3.6%
50 | CCOC(=O)c1ccc(NC(=O)C(C)(CCl)SC)cc1 (stereo unspecified) | inactive: -6.67%
51 | O=C(OC1CN2CCC1CC2)c1cccc([N+](=O)[O-])c1 (stereo unspecified) | inactive: 1.71%
52 | CCC(C)N(CC(C)C)C(=S)SC(NC(C)=O)C(Cl)(Cl)Cl (stereo unspecified) | inactive: -1.84%

Row | SMILES | activation
53 | CC1CCNP(=O)(N(CCCl)CCCl)O1 (stereo unspecified) | inactive: -3.59%
54 | CCOC(=O)Nc1ccc([As](=O)(O)O)c(O)c1 | inactive: 3.65%
55 | Cc1cc(SC(NC(=O)c2ccccc2)C(Cl)(Cl)Cl)nc(C(C)C)n1 (stereo unspecified) | inactive: 10.6%
56 | CCCCOc1ccc(C(=O)NCC2(N3CCCCC3)CCCCC2)cc1OC | inactive: -2.5%
57 | CCOC(=O)Nc1cccc([As](=O)(O)O)c1 | inactive: -9.27%
58 | O=[N+]([O-])c1ccc(Nc2ccc(Oc3ccc([N+](=O)[O-])cc3[N+](=O)[O-])cc2)c([N+](=O)[O-])c1 | inactive: 2.01%
59 | O=P(Nc1ccccn1)(c1cccc2ccccc12)c1cccc2ccccc12 | inactive: 6.05%
60 | Cc1cc(SC(NC=O)C(Cl)(Cl)Cl)ncn1 (stereo unspecified) | inactive: 1.36%
61 | O=[N+]([O-])c1ccc(-c2cc([N+](=O)[O-])c(O)c([N+](=O)[O-])c2)cc1 | inactive: -3.82%
62 | COc1cc(C(=O)NCC2(N3CCOCC3)CCCCC2)ccc1OCC(C)C | inactive: -2.67%
63 | C[As](=O)(O)c1cccc(C(=O)O)c1 | inactive: -6.01%
64 | O=[As](O)(c1ccc(O)cc1)c1ccccc1O | inactive: -3.78%
65 | Cc1ccc2nc3c(c(C)c2c1)CC(C(Cl)Cl)S3 (stereo unspecified) | inactive: 1.29%
66 | Cc1ccc(OP(=O)(Nc2ccc([N+](=O)[O-])cn2)Oc2ccc(C)cc2)cc1 | inactive: -5.12%
67 | COC(=O)C1(C)COP(=O)(N2CCCCCC2)OC1 (stereo unspecified) | inactive: 4.12%
68 | CC(C)c1ccc(OP(=O)(Nc2ccccn2)Oc2ccccc2F)cc1 (stereo unspecified) | inactive: 5.13%
69 | ClCCSc1nnc(-c2cccnc2)o1 | inactive: 0.3%
70 | O=[N+]([O-])c1cc([N+](=O)[O-])c(-c2ccn[nH]2)s1 | inactive: -6.46%
71 | O=C(OC1CN2CCC1CC2)c1cccc2[nH]cnc12 (stereo unspecified) | inactive: 3.09%
72 | CCN(CC)C(=S)SC(NC=O)C(Cl)(Cl)Cl (stereo unspecified) | inactive: 6.53%
73 | Cc1cc(=O)[nH]c(N[N+](=O)[O-])n1 | inactive: -3.83%
74 | O=C(OC1CN2CCC1CC2)C12CC3CC(CC(C3)C1)C2 (stereo unspecified) | inactive: 4.29%
75 | Cc1c2c(nc3ccccc13)SC(C(Cl)Cl)C2 (stereo unspecified) | inactive: -4.56%
76 | COc1cc(I)ccc1[As](=O)(O)O | inactive: -0.73%
77 | COc1ccc2nc(NP(=O)(c3ccccc3)c3ccccc3)sc2c1 | inactive: 5.49%
78 | O=P1(N(CCCl)CCCl)Nc2ccccc2N1 | inactive: 0.18%

Row | SMILES | activation
79 | O=P1(N(CCCl)CCCl)OCCCN1CCCl (stereo unspecified) | inactive: -4.73%
80 | COc1ccc(N/C(=N/P(=O)(N2CCOCC2)N2CCOCC2)N2CCOCC2)cc1 | inactive: -2.38%
81 | O=[N+]([O-])c1cc(Oc2ccc([N+](=O)[O-])cc2C(F)(F)F)cc([N+](=O)[O-])c1 | inactive: -1%
82 | NC(=O)c1cc([N+](=O)[O-])cc([N+](=O)[O-])c1N | inactive: -1.6%
83 | Cc1ccc(N/C(=N/P(=O)(N2CCOCC2)N2CCOCC2)N2CCOCC2)cc1 | inactive: 6.16%
84 | CN(C(=O)Cc1ccc(Cl)c(Cl)c1)[C@H]1CCCC[C@H]1N1CCCC1 | inactive: 2.72%
85 | COc1ccccc1OP(=O)(Nc1ccc(C)cn1)Oc1ccccc1OC | inactive: -2.61%
86 | CN1CCCC(OC(=O)C(c2ccccc2)c2ccccc2)C1 (stereo unspecified) | inactive: 6.05%
87 | Clc1ccc(Cl)c(NC2=NCC(CBr)S2)c1 (stereo unspecified) | inactive: 2.34%
88 | Nc1cc(N)c2nonc2c1[N+](=O)[O-] | inactive: -3.54%
89 | CC(C)CC(=O)NC(Sc1ccc(Cl)cc1)C(Cl)(Cl)Cl (stereo unspecified) | inactive: -3.86%
90 | O=C(NC(Sc1ccncn1)C(Cl)(Cl)Cl)c1ccccc1 (stereo unspecified) | inactive: 8.54%
91 | Oc1ccccc1CNc1ccccn1 | inactive: 3.08%
92 | CCCC1OP(N)(=O)OCC1CC (stereo unspecified) | inactive: -3.35%
93 | CC(=O)Nc1ccc([As](=O)(O)O)cc1 | inactive: 0.32%
94 | O=C(O)c1ccccc1[As](=O)(O)O | inactive: 2.4%
95 | O=P(Nc1nc2ccc(Cl)cc2s1)(c1ccccc1)c1ccccc1 | inactive: 1.56%
96 | Cc1ccc(NP(=O)(Oc2ccccc2F)Oc2ccccc2F)nc1 | inactive: 7.94%
97 | CN(C(=O)Cc1ccc(Cl)c(Cl)c1)[C@H]1CCCC[C@@H]1N1CCCC1 | inactive: 2.83%
98 | Cc1cc(SC(NC(=O)c2ccc(F)cc2)C(Cl)(Cl)Cl)ncn1 (stereo unspecified) | inactive: -3.32%
99 | CCOP(=O)(Nc1ccccc1)OCC | inactive: -5.09%
100 | CCN(N=Nc1nonc1N)c1nonc1N | inactive: -2.88%
101 | Nc1cccc2ccc([As](=O)(O)O)cc12 | inactive: -0.78%
